Assay results taken from PubChem BioAssay AID720543 (The Scripps Research Institute Molecular Screening Center, 2013).
The entries are a selection whose mix differs from that of the whole data set. Calls of active or inactive are those of the source.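 The calls were made as follows: active = inhibition exceeding the mean over every tested compound plus 3 SD (cut at about 30% in these data); inactive = the rest.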

Amino acid sequences for entries named in this document (tags omitted). A change or cut given only in a name is not applied to a line headed by its entry.
UniProt Q8VD66: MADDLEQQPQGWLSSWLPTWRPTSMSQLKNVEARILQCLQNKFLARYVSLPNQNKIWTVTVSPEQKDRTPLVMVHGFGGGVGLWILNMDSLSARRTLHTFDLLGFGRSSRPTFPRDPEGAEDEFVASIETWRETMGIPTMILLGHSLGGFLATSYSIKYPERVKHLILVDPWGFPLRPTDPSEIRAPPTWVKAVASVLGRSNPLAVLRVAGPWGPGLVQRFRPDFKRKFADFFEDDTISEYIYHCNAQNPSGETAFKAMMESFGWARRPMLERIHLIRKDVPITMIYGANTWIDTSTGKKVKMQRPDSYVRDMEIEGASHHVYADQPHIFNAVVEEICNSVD

molecular target: (Lyso)-N-acylphosphatidylethanolamine lipase (Mus musculus) (UniProt Q8VD66); assay: mouse ABHD4 hydrolase activity blockers – biochemical, fluorescence polarization, primary screen (AID 720543); conditions: purified mABHD4, FP-Rh probe fluorescence polarization; at 8.92 µM; stronger effect = higher value;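 also: 0% = plate median of compound wells and 100% = S159A mutant with DMSO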
How it was run: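 System: mouse ABHD4 enzyme, wild type / Medium: HEPES pH 7.0, NaCl, Pluronic buffer / Reagent: FP-Rh activity-based fluorescent probe / Control set: S159A mutant high control, sample median low control / Detection: fluorescence polarization with parallel and perpendicular emission, 525/598 nm / Schedule: 45 min + 60 min at 25 °C / Compound dosing: 8.92 µM, single dose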

Compound	inhibition
O=P1(N(CCCl)CCCl)NCCC(C(F)(F)F)O1 (stereo not drawn)	inactive: 2.4%
CCOP(=O)(Nc1ccc(C)cn1)OCC	inactive: 1.42%
CN(CCCl)Cc1cc(Cl)c(NC2=NCCN2)c(Cl)c1	inactive: 0.96%
CCOP(=O)(NC(=NC(C)c1ccccc1)NC(C)c1ccccc1)OCC (stereo not drawn)	inactive: -2.39%
CCC1=CC2Cc3nc4ccc(Cl)cc4c(N)c3C(C1)C2 (stereo not drawn)	inactive: 8.48%
O=P1(Nc2ccccn2)COc2ccccc2OC1	inactive: 0.51%
CC1(CBr)Cn2c(nc3ccccc3c2=O)S1 (stereo not drawn)	inactive: 5.36%
CN(C(=O)Cc1ccc(Cl)c(Cl)c1)C1CCCC[C@@H]1N1CCCC1 (stereo partly drawn)	inactive: -1.41%
CN(C(=O)Cc1ccc(Cl)c(Cl)c1)[C@@H]1CCCC[C@H]1N1CCCC1	inactive: 0.16%
CC(C)/C=N\N=C(\N)N[N+](=O)[O-]	inactive: 1.2%
COc1ccccc1CNC(=O)COC(=O)C(O)(c1ccccc1)c1ccccc1	inactive: -2.69%
Cc1cccc(OCC(=O)OC2CN3CCC2CC3)c1 (stereo not drawn)	inactive: 0.22%
O=[As](O)(c1cccc(O)c1)c1cccc(O)c1	inactive: -2.7%
CS(=O)(=O)c1ccc(Cl)c(NC(=O)COC(=O)C(O)(c2ccccc2)c2ccccc2)c1	inactive: -8.29%
O=[As](O)(O)c1cccnc1	inactive: 6.78%
COc1cc(C(=O)NCC2(N3CCOCC3)CCCCC2)cc(Cl)c1OC(C)C	inactive: -8.88%
O=C(OC1CN2CCC1CC2)c1ccc(Cl)cc1 (stereo not drawn)	inactive: -16.2%
CCOP(=O)(Nc1cccc2ccccc12)OCC	inactive: -1.7%
COc1cc(C2NCCC3(OCCO3)C2(C)C)cc(OC)c1OC (stereo not drawn)	inactive: -1%
CCCOP(=S)(Nc1nc(N)cc(=O)[nH]1)OCCC	inactive: 2.06%
Nc1cccc2c([As](=O)(O)O)cccc12	active: 44.2%
Cc1ccc(NCCc2c([N+](=O)[O-])cc([N+](=O)[O-])cc2[N+](=O)[O-])cc1	active: 44.1%
O=C(O)COc1ccc([As](=O)(O)O)cc1[N+](=O)[O-]	inactive: 2.51%
Nc1ccccc1[As](=O)(O)c1ccccc1	inactive: 3.66%
O=P(Nc1nccs1)(Oc1ccccc1)Oc1ccccc1	inactive: -2.2%

Compound	inhibition
CCOP1(=S)c2c(C)nn(CCC#N)c2N=C(c2ccccc2F)N1C (stereo not drawn)	inactive: 0.29%
CN(C(=O)Cc1ccc(Cl)c(Cl)c1)[C@H]1CC[C@@]2(CCCO2)C[C@@H]1N1CCCC1	inactive: 0.78%
O=[N+]([O-])c1ccc2c(c1)nnn2O	inactive: 0.91%
CN(C)C(=O)c1cc([N+](=O)[O-])cc2c1-c1c(cc([N+](=O)[O-])cc1[N+](=O)[O-])C2=O	inactive: 1.3%
CN(C(=O)Cc1ccccc1)[C@@H]1CC[C@]2(CCCO2)C[C@H]1N1CCCC1	inactive: -3.66%
CCOP1(=S)c2c(C)nn(CCC#N)c2N=C(c2ccc(F)cc2)N1C (stereo not drawn)	inactive: -0.42%
N#CCCN(C(=O)COC(=O)C(O)(c1ccccc1)c1ccccc1)c1ccc(F)cc1	inactive: 5.33%
NC(=O)Nc1ccc([As](=O)(O)O)cc1	inactive: 8.54%
Cc1ccc2nc3c(c(C)c2c1)CC(C(Cl)Cl)S3 (stereo not drawn)	inactive: 1.19%
Cc1ccc(OP(=O)(Nc2ccc([N+](=O)[O-])cn2)Oc2ccc(C)cc2)cc1	inactive: 2.97%
[N-]=[N+]=NC1CCCCC1NC(=O)c1cc([N+](=O)[O-])cc([N+](=O)[O-])c1 (stereo not drawn)	inactive: -3.08%
O=[N+]([O-])c1ccc(-c2cc([N+](=O)[O-])c(O)c([N+](=O)[O-])c2)cc1	inactive: -34.2%
COc1cc(C(=O)NCC2(N3CCOCC3)CCCCC2)ccc1OCC(C)C	inactive: -3.38%
O=[As](O)(c1ccc(O)cc1)c1ccccc1O	inactive: 3.53%
C[As](=O)(O)c1cccc(C(=O)O)c1	inactive: -3.18%
CC(C)NC(=O)NP(=O)(Oc1ccccc1)Oc1ccccc1	inactive: -1.85%
O=C(OC1CN2CCC1CC2)c1cccc2[nH]cnc12 (stereo not drawn)	inactive: -9.89%
CCN(CC)C(=S)SC(NC=O)C(Cl)(Cl)Cl (stereo not drawn)	inactive: 2.22%
COC(=O)C1(C)COP(=O)(N2CCCCCC2)OC1 (stereo not drawn)	inactive: -1.68%
CC(C)c1ccc(OP(=O)(Nc2ccccn2)Oc2ccccc2F)cc1 (stereo not drawn)	inactive: 2.42%
ClCCSc1nnc(-c2cccnc2)o1	inactive: 1.71%
COc1cc(I)ccc1[As](=O)(O)O	inactive: -1.38%
COc1ccc2nc(NP(=O)(c3ccccc3)c3ccccc3)sc2c1	inactive: -1.53%
O=P1(N(CCCl)CCCl)OCCCN1CCCl (stereo not drawn)	inactive: 3.02%
O=P1(N(CCCl)CCCl)Nc2ccccc2N1	inactive: 7.04%

Compound	inhibition
Cc1cc(=O)[nH]c(N[N+](=O)[O-])n1	inactive: 2.65%
O=C(OC1CN2CCC1CC2)C12CC3CC(CC(C3)C1)C2 (stereo not drawn)	inactive: -6.61%
Cc1c2c(nc3ccccc13)SC(C(Cl)Cl)C2 (stereo not drawn)	inactive: -7.93%
COc1ccc(N/C(=N/P(=O)(N2CCOCC2)N2CCOCC2)N2CCOCC2)cc1	inactive: -3.33%
O=[N+]([O-])c1cc(Oc2ccc([N+](=O)[O-])cc2C(F)(F)F)cc([N+](=O)[O-])c1	inactive: -2.01%
O=C(Nc1ccncc1[N+](=O)[O-])c1ccc([N+](=O)[O-])cc1[N+](=O)[O-]	inactive: 6.51%
O=C(COc1ccccc1)OC1CN2CCC1CC2 (stereo not drawn)	inactive: 5.56%
O=C(O)C(=O)c1ccc(N(CCCl)CCCl)cc1	inactive: 10.9%
COC(=O)C1(C)COP(=O)(N2CCCC2)OC1 (stereo not drawn)	inactive: -3.18%
COP1(=S)c2c(C)nn(CCC#N)c2N=C(c2ccc(F)cc2)N1C (stereo not drawn)	inactive: -0.77%
CCC(C)N(CC(C)C)C(=S)SC(NC(C)=O)C(Cl)(Cl)Cl (stereo not drawn)	inactive: 1.59%
CCOC(=O)c1ccc(NC(=O)C(C)(CCl)SC)cc1 (stereo not drawn)	inactive: 2.16%
O=C(OC1CN2CCC1CC2)c1cccc([N+](=O)[O-])c1 (stereo not drawn)	inactive: -0.07%
Cc1cc(SC(NC(=O)c2ccccc2)C(Cl)(Cl)Cl)nc(C(C)C)n1 (stereo not drawn)	inactive: -1.02%
CCCCOc1ccc(C(=O)NCC2(N3CCCCC3)CCCCC2)cc1OC	inactive: -2.12%
COP(=O)(OC)N1CC1c1ccccc1 (stereo not drawn)	inactive: 1.63%
CC1CCNP(=O)(N(CCCl)CCCl)O1 (stereo not drawn)	inactive: -12.2%
O=C(O)C(O)c1ccc(N(CCCl)CCCl)cc1 (stereo not drawn)	inactive: 0.42%
CCOC(=O)Nc1ccc([As](=O)(O)O)c(O)c1	inactive: 11.1%
O=[N+]([O-])c1ccc(Nc2ccc(Oc3ccc([N+](=O)[O-])cc3[N+](=O)[O-])cc2)c([N+](=O)[O-])c1	inactive: 3.62%
Cc1cc(SC(NC=O)C(Cl)(Cl)Cl)ncn1 (stereo not drawn)	inactive: 6.96%
O=P(Nc1ccccn1)(c1cccc2ccccc12)c1cccc2ccccc12	inactive: -3.43%
CCOC(=O)Nc1cccc([As](=O)(O)O)c1	inactive: 5.25%
